One compound from US8933070B2, “Methods of targeting PTEN mutant diseases and compositions therefor” (University Health Network, priority 2010, dated 2015) can be followed below.

Protein sequences, listed by entry. Tags and fused reporters are not part of them. Lines headed by an entry give the natural chain unless they say otherwise; changes in a name come on top. Residues count along the entry.
UniProt P06239: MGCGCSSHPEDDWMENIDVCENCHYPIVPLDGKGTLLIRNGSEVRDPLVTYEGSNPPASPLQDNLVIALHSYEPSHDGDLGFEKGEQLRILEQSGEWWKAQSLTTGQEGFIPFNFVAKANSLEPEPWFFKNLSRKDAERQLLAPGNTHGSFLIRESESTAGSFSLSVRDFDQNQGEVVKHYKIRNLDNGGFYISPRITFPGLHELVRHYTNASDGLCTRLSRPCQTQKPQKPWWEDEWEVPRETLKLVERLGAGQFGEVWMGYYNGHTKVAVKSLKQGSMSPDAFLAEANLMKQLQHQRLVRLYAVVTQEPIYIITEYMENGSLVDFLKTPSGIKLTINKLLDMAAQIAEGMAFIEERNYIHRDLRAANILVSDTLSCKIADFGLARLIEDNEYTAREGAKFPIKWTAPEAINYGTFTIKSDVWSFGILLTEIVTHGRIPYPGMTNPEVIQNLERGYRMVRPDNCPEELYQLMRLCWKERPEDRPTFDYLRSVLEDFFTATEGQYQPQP
UniProt P07948: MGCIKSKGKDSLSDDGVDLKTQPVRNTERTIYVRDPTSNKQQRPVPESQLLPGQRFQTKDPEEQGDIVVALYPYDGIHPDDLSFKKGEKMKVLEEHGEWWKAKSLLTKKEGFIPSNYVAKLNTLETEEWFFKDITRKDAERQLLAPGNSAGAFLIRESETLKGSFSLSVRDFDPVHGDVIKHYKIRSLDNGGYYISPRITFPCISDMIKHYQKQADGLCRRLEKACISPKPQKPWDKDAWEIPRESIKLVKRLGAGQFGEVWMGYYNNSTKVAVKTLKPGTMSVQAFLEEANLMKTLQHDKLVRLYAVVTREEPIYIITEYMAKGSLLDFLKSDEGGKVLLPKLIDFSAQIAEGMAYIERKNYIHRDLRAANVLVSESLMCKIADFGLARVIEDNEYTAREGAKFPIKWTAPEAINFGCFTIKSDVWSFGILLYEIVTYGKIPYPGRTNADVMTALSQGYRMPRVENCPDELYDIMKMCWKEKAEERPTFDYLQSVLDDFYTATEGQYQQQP
UniProt P17948, 27-1338: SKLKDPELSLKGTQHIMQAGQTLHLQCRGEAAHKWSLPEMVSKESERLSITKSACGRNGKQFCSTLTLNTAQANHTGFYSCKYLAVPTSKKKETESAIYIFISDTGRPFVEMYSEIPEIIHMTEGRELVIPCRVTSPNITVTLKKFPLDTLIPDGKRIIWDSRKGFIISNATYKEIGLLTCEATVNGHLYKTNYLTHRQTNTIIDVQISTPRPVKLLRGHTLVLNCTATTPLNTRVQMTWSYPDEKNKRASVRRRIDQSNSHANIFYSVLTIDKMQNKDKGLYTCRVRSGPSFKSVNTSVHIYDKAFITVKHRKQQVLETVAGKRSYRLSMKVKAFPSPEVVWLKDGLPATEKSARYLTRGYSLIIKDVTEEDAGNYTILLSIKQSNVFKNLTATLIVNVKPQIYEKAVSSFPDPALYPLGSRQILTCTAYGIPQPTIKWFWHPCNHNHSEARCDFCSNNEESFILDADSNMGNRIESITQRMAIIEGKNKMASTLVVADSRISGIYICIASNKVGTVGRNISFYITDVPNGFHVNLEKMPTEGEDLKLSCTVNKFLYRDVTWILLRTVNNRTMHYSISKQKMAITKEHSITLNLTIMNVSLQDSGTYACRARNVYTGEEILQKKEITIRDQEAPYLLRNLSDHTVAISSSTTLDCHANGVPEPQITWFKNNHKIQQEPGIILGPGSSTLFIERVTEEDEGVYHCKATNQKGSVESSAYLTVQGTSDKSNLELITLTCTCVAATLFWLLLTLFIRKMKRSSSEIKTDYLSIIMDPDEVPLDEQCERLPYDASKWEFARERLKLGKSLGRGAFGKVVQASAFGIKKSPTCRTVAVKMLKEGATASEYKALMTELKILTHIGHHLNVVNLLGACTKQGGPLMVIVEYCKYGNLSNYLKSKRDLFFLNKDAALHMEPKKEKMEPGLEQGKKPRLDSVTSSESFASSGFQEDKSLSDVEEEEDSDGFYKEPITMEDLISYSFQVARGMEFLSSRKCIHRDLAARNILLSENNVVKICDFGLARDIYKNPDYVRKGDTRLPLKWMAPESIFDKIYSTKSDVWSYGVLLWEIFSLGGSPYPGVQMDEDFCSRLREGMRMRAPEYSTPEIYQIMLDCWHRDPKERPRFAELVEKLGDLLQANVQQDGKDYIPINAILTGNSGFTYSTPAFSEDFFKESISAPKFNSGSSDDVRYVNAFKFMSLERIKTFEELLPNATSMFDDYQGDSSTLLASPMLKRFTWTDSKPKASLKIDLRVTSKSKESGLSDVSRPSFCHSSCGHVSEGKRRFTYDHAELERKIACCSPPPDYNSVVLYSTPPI
UniProt Q16539, whole entry: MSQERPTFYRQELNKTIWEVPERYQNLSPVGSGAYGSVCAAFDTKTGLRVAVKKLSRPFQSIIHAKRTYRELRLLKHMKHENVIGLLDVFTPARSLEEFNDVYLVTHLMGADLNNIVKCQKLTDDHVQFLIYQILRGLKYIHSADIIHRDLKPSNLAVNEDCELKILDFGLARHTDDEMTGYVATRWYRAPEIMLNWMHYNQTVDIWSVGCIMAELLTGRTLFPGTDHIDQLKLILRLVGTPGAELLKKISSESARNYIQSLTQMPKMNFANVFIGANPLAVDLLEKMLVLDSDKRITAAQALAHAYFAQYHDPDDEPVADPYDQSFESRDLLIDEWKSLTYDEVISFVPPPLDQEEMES
UniProt P00519, whole entry: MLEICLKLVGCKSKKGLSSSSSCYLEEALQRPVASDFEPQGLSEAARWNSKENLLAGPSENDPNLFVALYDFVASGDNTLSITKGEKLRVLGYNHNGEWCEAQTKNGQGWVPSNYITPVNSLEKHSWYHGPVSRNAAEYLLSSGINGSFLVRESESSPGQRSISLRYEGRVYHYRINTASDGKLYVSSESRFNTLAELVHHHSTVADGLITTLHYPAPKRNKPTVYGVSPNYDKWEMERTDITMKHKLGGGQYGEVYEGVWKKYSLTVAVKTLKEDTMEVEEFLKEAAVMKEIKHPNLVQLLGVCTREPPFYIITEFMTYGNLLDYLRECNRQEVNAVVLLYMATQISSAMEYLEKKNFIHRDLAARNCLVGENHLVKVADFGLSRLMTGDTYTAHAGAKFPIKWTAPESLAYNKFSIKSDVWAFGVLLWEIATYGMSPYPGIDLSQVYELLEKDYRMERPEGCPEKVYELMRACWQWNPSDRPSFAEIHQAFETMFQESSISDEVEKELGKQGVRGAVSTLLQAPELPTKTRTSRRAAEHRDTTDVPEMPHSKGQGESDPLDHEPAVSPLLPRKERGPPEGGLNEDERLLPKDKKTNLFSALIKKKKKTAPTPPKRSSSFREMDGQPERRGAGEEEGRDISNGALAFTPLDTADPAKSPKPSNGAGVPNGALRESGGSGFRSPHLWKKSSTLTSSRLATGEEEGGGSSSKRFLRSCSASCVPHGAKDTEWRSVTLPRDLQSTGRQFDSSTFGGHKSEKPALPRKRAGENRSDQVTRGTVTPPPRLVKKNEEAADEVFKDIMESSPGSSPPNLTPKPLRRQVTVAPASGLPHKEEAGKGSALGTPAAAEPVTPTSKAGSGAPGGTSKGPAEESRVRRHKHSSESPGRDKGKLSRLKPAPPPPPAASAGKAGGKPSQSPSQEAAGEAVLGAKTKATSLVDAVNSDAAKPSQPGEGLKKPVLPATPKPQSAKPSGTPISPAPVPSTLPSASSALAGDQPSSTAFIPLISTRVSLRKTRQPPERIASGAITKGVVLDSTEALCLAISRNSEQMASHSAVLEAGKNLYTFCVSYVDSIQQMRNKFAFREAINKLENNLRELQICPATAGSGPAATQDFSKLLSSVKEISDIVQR
UniProt P04629, 33-796: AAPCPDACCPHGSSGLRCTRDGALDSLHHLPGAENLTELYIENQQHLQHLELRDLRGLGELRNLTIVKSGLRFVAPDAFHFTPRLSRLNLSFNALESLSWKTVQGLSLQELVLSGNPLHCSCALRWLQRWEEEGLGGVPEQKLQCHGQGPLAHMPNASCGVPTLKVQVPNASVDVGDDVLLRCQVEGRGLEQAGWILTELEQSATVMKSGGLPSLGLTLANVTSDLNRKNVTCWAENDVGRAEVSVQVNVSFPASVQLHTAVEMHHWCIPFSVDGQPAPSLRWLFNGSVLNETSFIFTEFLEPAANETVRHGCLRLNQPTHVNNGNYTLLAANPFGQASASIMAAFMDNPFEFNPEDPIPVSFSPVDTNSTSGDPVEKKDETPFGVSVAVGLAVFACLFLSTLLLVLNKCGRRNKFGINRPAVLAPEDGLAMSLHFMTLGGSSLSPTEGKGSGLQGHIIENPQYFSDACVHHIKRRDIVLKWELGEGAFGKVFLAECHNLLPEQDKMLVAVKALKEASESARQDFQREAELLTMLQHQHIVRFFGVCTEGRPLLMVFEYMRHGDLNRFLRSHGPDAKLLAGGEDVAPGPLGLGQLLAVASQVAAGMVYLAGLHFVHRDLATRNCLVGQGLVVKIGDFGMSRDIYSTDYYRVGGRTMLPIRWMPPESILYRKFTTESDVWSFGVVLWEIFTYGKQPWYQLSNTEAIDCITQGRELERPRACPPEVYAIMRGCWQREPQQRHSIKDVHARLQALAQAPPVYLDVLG

Assay in all cases: Kinase selectivity assay (CEREP, HTRF)
Holding throughout (assay type): biochemical
Common to all, as to settings: read-out: % Inhibition at 10 μM Concentration
For orientation: Time-resolved FRET reads energy transfer from a long-lived donor to a nearby acceptor.

The target of one experiment is Lck (Homo sapiens, UniProt P06239). As to the method: (§1) The inhibitory activity of selected compounds was evaluated against a panel of 45 different kinase enzymes by CEREP, France. The assays were performed using standard HTRF assay methods as documented by CEREP against the human orthologues of Abl kinase, Akt1/PKBa, AMPKa, BMX kinase (Etk), Brk, CaMK2a, CaMK4, CDC2/CDK1 (cycB), CHK1, CHK2, c-Met kinase, CSK, EphB4 kinase, ERK1, ERK2 (P42mapk), FGFR2 kinase, FGFR4 kinase, FLT-1 kinase (VEGFR1), FLT-3 kinase, Fyn kinase, IGF1R kinase, IRK (InsR), JNK 2, KDR kinase (VEGFR2), Lck kinase, Lyn kinase, MAPKAPK2, MEK1/MAP2K1, p38a kinase, p38d kinase, p38g kinase, PDGFRb kinase, PDK1, PKA, PKCa, PKCb1, PKCb2, PKCg, Ret kinase, ROCK2, RSK2, Src kinase, Syk, and TRKA. The % Inhibition was determined by the formula; % Inhibition=100×(1−(experimental value−background value)/(high activity control−background value)).

For another experiment, the target named is Lyn (Homo sapiens, UniProt P07948). As to the method: as §1
The target of the next experiment is FLT-1 (VEGFR1) (Homo sapiens, UniProt P17948). As to the method: as §1
The target in another experiment is Src (Homo sapiens, UniProt P12931). On the procedure: as §1
For the next experiment, the target named is JNK 2 (Homo sapiens, UniProt P45984). On the procedure: as §1
Another experiment addresses p38alpha (Homo sapiens, UniProt Q16539). As to the method: as §1
The target in another experiment is Abl kinase (Homo sapiens, UniProt P00519). On the procedure: as §1
The target of a further experiment is TRKA (Homo sapiens, UniProt P04629). As to the method:
as §1

Consider `COc1ccc2c(c1)[C@@]1(C[C@@H]1c1ccc3c(-c4ccc(N5CCN(C)CC5)nc4)n[nH]c3c1)C(=O)N2` (racemic) [Compound 2], for which the inhibition at 10 µM on Lck was 71%; at Lyn, 15%; on FLT-1 (VEGFR1), 22%; at Src, 13%; at JNK 2, 11%; at p38alpha, -28%. Also, the results for the inhibition at 10 µM on Abl kinase and at TRKA were 91% and 93%, respectively.
